Source: BindingDB's records for doi:10.1016/s1388-1981(99)00164-x (Merck Frosst Centre For Therapeutic Research, 2000)

By UniProt entry, the sequences of proteins in these tests, tags left out. Where a name states a change or a piece, a line headed by the entry shows the natural chain unless it says otherwise.
UniProt P43116: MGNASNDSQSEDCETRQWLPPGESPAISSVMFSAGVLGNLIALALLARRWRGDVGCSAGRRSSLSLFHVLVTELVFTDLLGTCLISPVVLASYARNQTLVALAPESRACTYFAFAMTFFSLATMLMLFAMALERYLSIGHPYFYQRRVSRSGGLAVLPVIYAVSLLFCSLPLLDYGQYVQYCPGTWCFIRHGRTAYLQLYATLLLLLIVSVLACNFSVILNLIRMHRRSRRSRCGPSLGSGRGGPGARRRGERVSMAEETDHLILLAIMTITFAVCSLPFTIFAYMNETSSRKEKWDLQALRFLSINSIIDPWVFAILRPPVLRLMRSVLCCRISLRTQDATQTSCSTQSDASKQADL

Target: Prostaglandin E2 receptor EP2 subtype (Homo sapiens, UniProt P43116)

**Q.** With `CCCCC[C@H](O)/C=C/[C@H]1[C@H](O)CC(=O)[C@@H]1C/C=C\CCCC(=O)O` [DINOPROSTONE] as the compound, how does the Ki read?
**A.** Its Ki is 4.9 nM.
